Measured values: patent publication US20240277696A1, “METHODS OF TREATING NERVE AGENT-INDUCED SEIZURES” (published 2024)

System: nerve agent induced seizures
Assay: Arresting sarin (nerve agent) induced seizures in rodents, EEG scored by 7-point Likert Scale
Settings: rodents with sarin-induced seizures; tezampanel 2.5, 5, 7.5 or 15 mg/kg IM at 60 minutes (one cohort 6 hours) post sarin, after midazolam; hourly averages over 24 hours; FIG. 1

O=C(O)[C@@H]1C[C@H]2C[C@@H](CCc3nn[nH]n3)CC[C@H]2CN1
Electroencephalogram (EEG) derived seizure severity measured by a 7-point Likert Scale: successfully treated
